Experimental data from patent publication US20030109448A1, “Methods of promoting uptake and nuclear accumulation of polyamides in eukaryotic cells” (priority 2001, published 2003).

Legend:
RSF cells = test: Effect of P-gp inhibitors on intracellular distribution of Compound 1; details: inhibitor 5 to 100 μM, 30 min pretreatment then 16 hr with polyamide
HCT116 cells = test: as above; details: HCT116, inhibitor 5 to 100 μM, 30 min pretreatment then 16 hr with polyamide, data not shown

CC(C)COCC(CN(Cc1ccccc1)c1ccccc1)N1CCCC1 (centres unmarked) [bepridil]
effect on intracellular distribution of Compound 1 (RSF cells): no effect | effect on nuclear accumulation / intracellular distribution of Compound 1 (HCT116 cells): None of these showed any observable ability to enhance nuclear accumulation
